## Antibody variant affinities, Ab-14 heavy chain, assay B

Binding partner: SARS-CoV-2 spike HR2 peptide, sequence PDVDLGDISGINAS.

Each scFv is VH, the linker GGGGSGGGGSGGGGS, VL, as in the parent Ab-14, and differs from it in the CDRs of the heavy chain only.
VH: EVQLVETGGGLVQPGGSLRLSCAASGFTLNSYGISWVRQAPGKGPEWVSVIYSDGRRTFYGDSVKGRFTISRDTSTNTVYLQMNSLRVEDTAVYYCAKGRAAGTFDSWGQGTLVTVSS
VL: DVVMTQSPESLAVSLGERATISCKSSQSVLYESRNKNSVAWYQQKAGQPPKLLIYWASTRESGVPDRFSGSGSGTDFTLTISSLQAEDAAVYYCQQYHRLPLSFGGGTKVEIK

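The parent was found by panning a naive human phage display library on the peptide. The variants were designed computationally from a first round of random CDR variants and then made and measured. Group labels follow the data file (Ctrl: baseline library sampled from a position-specific scoring matrix, with some repeated check sequences; Rand: our label for a block that the file lists under HC and that is probably the random mutants of the ten best first-round binders; En: ensemble of fine-tuned language models; GP: Gaussian process model; GPLM: also part of the Gaussian process libraries; HC: hill climbing; Gen: genetic algorithm; Gibbs: Gibbs sampling; a sequence that several methods proposed may carry one label only). In AlphaSeq, yeast of one mating type display the scFv and yeast of the other type display the target. Pairs that bind mate more often; barcode pairs of the diploids are counted by sequencing. Scores were corrected for input abundance and mapped to Kd with protein pairs of known affinity run in the same pool. The assay was run in six technical replicates.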

Variants are written as CDR1, CDR2 and CDR3 of the heavy chain (limits as in the source). Parent: GFTLNSYGIS, VIYSDGRRTFYGDSVK, GRAAGTFDS. Affinities are written as log10 Kd with Kd in nM; a lower number is a better binder. Replicates are averaged; those with no signal do not enter the mean. Where no diploid with the target was found in any replicate, the entry reads "no signal": below detection, most likely a poor binder, though not proof of it. The list is sorted by this average, lowest first, undetected variants last. The range of this assay differs from that of the first round, and the authors advise against merging the two. As a blank, each scFv also met three strains without target: over all heavy chain designs, 1% of these pairings were detected, typically at 2.08 and seldom below 0.84. The parent sequence was in this pool as ten entries: three were never detected, three once, and four in most replicates, with averages from 0.34 to 2.37. The authors' rule: three or more of the six replicates give a measured affinity, fewer mean a poor binder. A sequence that the file lists under several names has all its replicates pooled.

| # | CDR-H1 | CDR-H2 | CDR-H3 | group | mean log10 Kd (nM) | seen in |
|---|---|---|---|---|---|---|
| 1 | GFDLDEYGIS | VIYADGVRTAYSDSVK | GNNAGTFDV | En_Gen | -1.21 | 6/6 |
| 2 | GFDLNEYGIS | VIYADGRRTYYVDSVK | GENAGTFDV | En_HC | -1.13 | 6/6 |
| 3 | GFNLNEYGIS | VIYADGMRTFYADSVK | GEAAGTFDS | En_HC | -0.95 | 6/6 |
| 4 | GFDLNEYGIS | VIYADGVRTFYSDSVK | GNVGGTFDV | En_HC | -0.80 | 6/6 |
| 5 | GFDLEDYGIS | VIYADGMRTAYADSVK | GEVAGTFDQ | En_Gen | -0.65 | 6/6 |
| 6 | GFDLNEYGIS | VIYADGFRTAYADSVK | GNVAGTFDI | En_Gen | -0.61 | 6/6 |
| 7 | GFDLNEYGIS | VIYADGRRTFYSDSVK | GQLAGTFDL | En_HC | -0.60 | 6/6 |
| 8 | GFDLNEYGIS | VIYADGRRTAYADSVK | GKNAGTFDV | En_Gen | -0.55 | 6/6 |
| 9 | GFDLNEYGIS | VIYADGMRTYYADDVK | GEVAGTFDL | En_Gen | -0.54 | 6/6 |
| 10 | GFDLNEYGIS | VIYADGQRTAYANSVK | GNVAGTFDL | En_Gen | -0.46 | 6/6 |
| 11 | GFDLNEYGIS | VIYADGRRTFYADSVK | GANAGTFDQ | En_HC | -0.45 | 6/6 |
| 12 | GFDLNEYGIS | VIYADGVRSYYADSVK | GNVAGTFDV | En_Gen | -0.44 | 6/6 |
| 13 | GFDLNEYGIS | VIYADGRRTAYSDSVK | GGNAGTFDT | En_HC | -0.37 | 6/6 |
| 14 | GFDLNEYGIS | VIYADGMRTAYIDDVK | GNQAGTFDV | En_Gen | -0.31 | 6/6 |
| 15 | GFDLNEYGIS | VIYADGMRTAYTDSVK | GNIAGTFDS | En_HC | -0.27 | 6/6 |
| 16 | GFDLNEYGIS | VIYADGSRTAYSDSVK | GETAGTFDV | En_Gen | -0.19 | 6/6 |
| 17 | GFDLNEYGIS | VIYADGMRKAYADSVK | GNTAGTFDI | En_Gen | -0.18 | 6/6 |
| 18 | GFDLNEYGIS | VIYADGMRTFYVDSVK | GQLAGTFDF | En_HC | -0.18 | 6/6 |
| 19 | GFDLNSYGIS | VIYSDGRRTFYQDSVK | GREAGTFDS | GPLM_Gen | -0.17 | 6/6 |
| 20 | GFSLNQYGIS | VIYSDGRRTFYSDSVK | GRQAGTFDS | GPLM_HC | -0.10 | 6/6 |
| 21 | GFDINEYGIS | VIYADGRRTAYADSVK | GEAAGTFDK | En_HC | -0.04 | 6/6 |
| 22 | GFSLNEYGIS | VIYSDGRRTFYSDSVK | GRAAGIFDS | GPLM_HC | 0.06 | 6/6 |
| 23 | GFTLNDYGIS | VIYSDGRRTFYGDSVK | GRQAGTFDT | GPLM_Gen | 0.14 | 6/6 |
| 24 | GFDLNDYGIS | VIYSDGRRTFYGDSVK | GRAAGTFDS | Ctrl | 0.22 | 6/6 |
| 25 | GFELNSYGIS | VIYSDGRRTFYADSVK | GKTAGTFDV | GP_Gibbs | 0.22 | 6/6 |
| 26 | GFTLNSYGIS | VIYSDGRRTFYSDDVK | GKTAGTFDS | GPLM_HC | 0.25 | 6/6 |
| 27 | GFDLNEYGIS | VIYADGRRTFYIDSVK | GEIAGTFVV | En_HC | 0.32 | 6/6 |
| 28 | GFALNSYGIS | VIYSDGRRTFYMDSVK | GQLAGTFDS | GP_HC | 0.49 | 1/6 |
| 29 | GFTLNSYGIS | VIYADGRRTFYGDSVK | GMAAGTFDS | GPLM_Gen | 0.84 | 6/6 |
| 30 | GFDLNSYGIS | VIYSDGRRTFYQDRVK | GREAGTFDD | GP_Gibbs | 0.86 | 6/6 |
| 31 | GFDLNSYGIS | VIYSDGRRTFYGDSVK | GRAAGTFDM | GP_HC | 0.88 | 6/6 |
| 32 | GFELNSYGIS | VIYSDGRRTFYGDSVK | GWQAGTFDS | GP_Gen | 1.06 | 5/6 |
| 33 | GFDLNEYGIS | VIYADGKRTKVTDNVK | GTLTGTAVT | En_Gibbs | 1.07 | 6/6 |
| 34 | GFTLNSYGIS | VIYSDGRRTFYGDSVK | GREAGTFDT | GPLM_Gen | 1.14 | 6/6 |

Further variants, results first:

| # | mean log10 Kd (nM) | seen in | CDR-H1 | CDR-H2 | CDR-H3 | group |
|---|---|---|---|---|---|---|
| 35 | 1.18 | 5/6 | GFDLNSYGIS | VIYSDGRRTFYGDSVK | GEAAGTFDW | GP_Gen |
| 36 | 1.19 | 6/6 | GFDLNEYGIS | VIYADGMRTAYSDSVK | GENAGTFVL | En_Gen |
| 37 | 1.30 | 9/12 | GFTLNSYGIS | VIYSDGRRTFYGDSVK | GRVAGTFDS | Ctrl+GPLM_Gen |
| 38 | 1.48 | 6/6 | GFTLESYGIS | VIYSDGRRTFYADRVK | GWTAGTFDS | GP_Gibbs |
| 39 | 1.51 | 6/6 | GFTLNSYGIS | VIYSDGVRTFYSDSVK | GRAGGTFDS | GPLM_HC |
| 40 | 1.69 | 5/6 | GFNLDEYGIS | VIYADGGRVAYADNVK | GLVGKGGDL | En_Gibbs |
| 41 | 1.80 | 1/6 | GFTLNSYGIS | VIYSDGKRTFYSDSVK | GRVAGTFDT | GPLM_Gibbs |
| 42 | 2.30 | 4/6 | GFTLKSYGIS | VIYADGRRTFYGDSVK | GRAAGTYDS | GP_HC |
| 43 | 2.91 | 6/6 | AFDIEDYGIS | VIYADGVRAMYKESVK | GGIAGTFEI | En_Gibbs |
| 44 | no signal | 0/6 | GFSLNEYGIS | VIYADGMRTYYTESVK | GNIFDQLFV | En_Gibbs |
| 45 | no signal | 0/6 | GQGLEDYGIS | VIYADGMRTYYAPNVK | GEVNGVMDI | En_Gibbs |
| 46 | no signal | 0/6 | GFTLNSYGIS | VIYSDGRRTFYSDSVK | DRNHGTFDS | Ctrl |
| 47 | no signal | 0/6 | GFSLQEYGIS | VIYADGMRTQYTPNVK | GQTGFDYGL | En_Gibbs |
| 48 | no signal | 0/6 | GFDLNSYGIS | VIYSDGRRTFYGDQVK | GRAAGHFNS | GP_HC |
| 49 | no signal | 0/6 | GKGLDEYGVS | VIYADGKRTSYVDDVK | GGIAGQFLV | En_Gibbs |
| 50 | no signal | 0/6 | GFTLNSYGIS | VIYSDGRRQFYIDSVA | GSNAGTFDS | Ctrl |
| 51 | no signal | 0/6 | GFTINQYGIS | VIYSDGRRTFYGDSVK | TRAAGTIDT | Ctrl |
| 52 | no signal | 0/6 | GFSLNEYGIS | VIYSDGRRTFYGDSVK | GRAAVTFDK | GP_HC |
| 53 | no signal | 0/6 | GQDLESYGIS | VIYADGRRKAYHDSVK | GTNGSVSFV | En_Gibbs |
| 54 | no signal | 0/6 | GFDLNEYGIS | VIYADGVRTFYADSVK | GNVAGTFDT | En_Gen |
| 55 | no signal | 0/6 | GFNLNSYGIS | VIYSDGRRTFYGDSVK | GTQAGTFDS | GP_Gen |
| 56 | no signal | 0/6 | LFTLNSYGIS | VIYSDGRRTFYGDSVK | GRAAGTFDS | Ctrl |
| 57 | no signal | 0/6 | GFSLDEYGIS | VIYADGIRQHYSDQVK | GVKFGNVIF | En_Gibbs |
| 58 | no signal | 0/6 | GFDLNSYGIS | VIYSDGFRTFYSDSVK | HQAAGTNDS | Ctrl |
| 59 | no signal | 0/6 | GFNVNSYGIS | VIYSDGRRTFYGDSVK | GWAASTFDS | Ctrl |
| 60 | no signal | 0/6 | GFDLNSYGIS | VIYSDGRRTFYGDSVK | GEAAGTFKS | GP_HC |
| 61 | no signal | 0/6 | GFTLNSYGIS | VIYSDGRRTFYGDSVK | GRARGTFES | Ctrl |
| 62 | no signal | 0/6 | HFDLNSYGIS | VIYSDGRRTFYADSVK | GREAGTFDS | GP_Gen |
| 63 | no signal | 0/6 | GFTLNSYGIS | VIYADTRRTFYGDSVK | GRAAGTNKS | Rand |
| 64 | no signal | 0/6 | GFHLNSYGIS | VIYSDGQRTFYVDSVK | GQAAGTFDS | GP_Gibbs |
| 65 | no signal | 0/6 | GFTLNQYGIS | VIYSDGRRTFYSDSVK | GRSAGFFDS | Rand |
| 66 | no signal | 0/6 | GYTLNSYGIS | VIYSDGHRTFVSDSVK | GRAGGTFDS | Rand |
| 67 | no signal | 0/6 | GFTLESYGIS | VIYSDGRRTFYGDSVT | HRAAGTFDS | Ctrl |
| 68 | no signal | 0/6 | QFTLNSYGIS | VIYSDGRRTFYGDSVK | GRVAGTFFS | Ctrl |
| 69 | no signal | 0/6 | GFDLDEYGVS | VIYADGFRVAYAESVK | GLQQFGFTI | En_Gibbs |

For reference, 10 entries of the list once more:

| CDR-H1 | CDR-H2 | CDR-H3 | group | mean log10 Kd (nM) | seen in |
|---|---|---|---|---|---|
| GFDLDEYGIS | VIYADGVRTAYSDSVK | GNNAGTFDV | En_Gen | -1.21 | 6/6 |
| LFTLNSYGIS | VIYSDGRRTFYGDSVK | GRAAGTFDS | Ctrl | no signal | 0/6 |
| GFTLNSYGIS | VIYSDGVRTFYSDSVK | GRAGGTFDS | GPLM_HC | 1.51 | 6/6 |
| GFDLEDYGIS | VIYADGMRTAYADSVK | GEVAGTFDQ | En_Gen | -0.65 | 6/6 |
| GFDLNEYGIS | VIYADGQRTAYANSVK | GNVAGTFDL | En_Gen | -0.46 | 6/6 |
| GFDLNEYGIS | VIYADGSRTAYSDSVK | GETAGTFDV | En_Gen | -0.19 | 6/6 |
| GFELNSYGIS | VIYSDGRRTFYGDSVK | GWQAGTFDS | GP_Gen | 1.06 | 5/6 |
| GFTLESYGIS | VIYSDGRRTFYADRVK | GWTAGTFDS | GP_Gibbs | 1.48 | 6/6 |
| GFTINQYGIS | VIYSDGRRTFYGDSVK | TRAAGTIDT | Ctrl | no signal | 0/6 |
| GFDLNEYGIS | VIYADGMRTAYIDDVK | GNQAGTFDV | En_Gen | -0.31 | 6/6 |

The measurements come from Li et al. 2023 (doi:10.1038/s41467-023-39022-2) through the FLAb antibody collection.